Biological target: T1, PGAM1 (Homo sapiens, UniProt P18669)
T1 construct: His; made in house; host or cells: E. coli BL21
Test: PGAM1 coupled enzymatic assay (PKM1/enolase, Kinase-Glo)
Type: biochemical
Details: ratio of IC50 values

Sequences of proteins named here, by UniProt entry; tags and fusion partners are left off. A change or cut given only in a name is not applied to a line headed by its entry.
UniProt P18669: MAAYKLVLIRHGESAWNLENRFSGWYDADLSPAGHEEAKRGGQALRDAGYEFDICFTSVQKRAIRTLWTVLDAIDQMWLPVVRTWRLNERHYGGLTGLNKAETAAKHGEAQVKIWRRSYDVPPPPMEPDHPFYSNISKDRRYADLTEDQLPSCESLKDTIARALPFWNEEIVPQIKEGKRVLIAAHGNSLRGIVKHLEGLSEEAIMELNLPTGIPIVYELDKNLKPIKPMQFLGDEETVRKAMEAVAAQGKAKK

(-)-Epigallocatechin-3-gallate [EGCG]
potency toward PGAM1 relative to PGMI-004A: over 30 times
